Inhibition and Activity data for two compounds are collected here from ChEMBL document CHEMBL5532701 (RSC Med Chem, 2024).

Active and inactive are the calls of the source. The rule behind the calls is not given here.

The subject of one experiment is Escherichia coli. Put plainly: Inhibition of Escherichia coli OGDHc E1 subunit assessed as DCPIP reduction at 250 uM preincubated for 60 mins followed by pyruvate addition using 50 uM ThDP as substrate by microplate reader analysis.
In a further experiment the test system is Plasmodium falciparum. Put plainly: Antiplasmodial activity against Plasmodium falciparum 3D7 infected in human erythrocyte assessed as inhibition of parasite proliferation at 0.1 to 1000 uM in thiamine free medium by SYBR-Safe assay. As to conditions: dose 0.1-1000 µM. Format: functional, organism-based.
A further experiment deals with Catharanthus roseus. The experiment is described as follows: Inhibition of Catharanthus roseus DXPS at 20 uM relative to control.

A word on the inhibition: it is the share of the control response that was lost under treatment. Consider `CC(C)(C(=O)O)C(=O)N(O)Cc1ccccc1Cl`, for which, in the experiment with Escherichia coli, the inhibition is less than 5%. The outcome with Plasmodium falciparum was Active.

On to `CC1(C)C(=O)ON(Cc2ccccc2Cl)C1=O` [KETOCLOMAZONE], for which the inhibition is less than 5% in the experiment with Escherichia coli and 40% in the experiment on Catharanthus roseus. The result with Plasmodium falciparum was Active.
